Measured values published in patent US11697852B2, “Systems and methods for determining a treatment course of action” (The Regents of the University of Michigan, priority 2013, dated 2023).

By UniProt entry, the sequences of proteins in these tests, tags left out.
UniProt P03372, whole entry: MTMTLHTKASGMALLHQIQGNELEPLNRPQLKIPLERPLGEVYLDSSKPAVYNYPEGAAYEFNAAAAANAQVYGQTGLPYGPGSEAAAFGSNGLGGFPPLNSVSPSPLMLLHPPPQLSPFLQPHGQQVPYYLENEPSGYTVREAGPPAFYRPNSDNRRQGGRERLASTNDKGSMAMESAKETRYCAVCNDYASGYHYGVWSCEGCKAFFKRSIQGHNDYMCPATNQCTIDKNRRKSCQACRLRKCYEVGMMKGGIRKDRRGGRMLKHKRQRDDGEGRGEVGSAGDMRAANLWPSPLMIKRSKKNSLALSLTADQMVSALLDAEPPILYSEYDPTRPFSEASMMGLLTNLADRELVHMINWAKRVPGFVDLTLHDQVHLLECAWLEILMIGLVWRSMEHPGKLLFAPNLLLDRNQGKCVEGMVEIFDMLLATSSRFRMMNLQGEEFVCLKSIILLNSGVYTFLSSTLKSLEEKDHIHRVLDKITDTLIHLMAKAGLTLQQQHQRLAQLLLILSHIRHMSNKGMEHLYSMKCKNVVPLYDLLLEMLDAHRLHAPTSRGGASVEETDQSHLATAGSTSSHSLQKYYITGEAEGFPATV

Target: T1, wild type ESR1 (Homo sapiens, UniProt P03372)
T1 construct: expressed in transfected cells; host or cells: HEK-293T
Experiment: ERE-luciferase reporter assay, wild type ESR1
Format: cell-based
Conditions: HEK-293T cells co-transfected with ESR1 plasmid 50 ng and ERE-luciferase; in presence of β-estradiol (FIGS. 4, 8, 9, 10)
Excerpt: cDNA for the wild type ESR1 was PCR amplified from a breast cell line MCF7 with the introduction of an N-terminal FLAG tag. cDNA encoding the relevant mutations of ESR1 were generated by site-directed mutagenesis (QuikChange, Agilent) and full-length constructs were fully sequenced. All the ESR1 variants were placed in the Lentivial vector pCDH (System Biosciences) for eukaryotic expression.
Once cells attached, replaced medium with DMEM containing 10% charcoal-dextran treated FBS (HyClone) and cultured overnight. The next day, cells were transiently co-transfected with ESR1-expression plasmid at 50 ng/well and luciferase reporter constructs at 25 ng per well (SABiosciences) using the FuGene 6 reagent (Promega). The ER-responsive luciferase plasmid encoding the firefly luciferase reporter gene is driven by a minimal CMV promoter and tandem repeats of the estrogen transcriptional response element (ERE). A second plasmid constitutively expressing Renilla luciferase is served as an internal control for normalizing transfection efficiencies (Cignal ERE Reporter, SABiosciences). After transfection for 18 hrs, cells were serum-starved for a few hours before treatment with 13-estradiol or anti-estrogen drugs. Cells were harvested 18 hr post-treatment, and luciferase activity was measured using the Dual-Luciferase Reporter Assay System (Promega). […]

SMILES: C[C@]12CC[C@@H]3c4ccc(O)cc4C[C@@H](CCCCCCCCC[S+]([O-])CCCC(F)(F)C(F)(F)F)[C@H]3[C@@H]1CC[C@@H]2O (stereo partly shown) [fulvestrant, Fulvestrant]
- inhibition of wild-type ER reporter (transactivation) activity: inhibited in a dose-dependent fashion
